Among the data in patent publication US8623883B2, “4-phenylamino-quinazolin-6-yl-amides” (Warner-Lambert Company LLC, priority 2004, dated 2014) are IC50 values, retold here.

Protein sequences, listed by entry. Tags and fused reporters are not part of them. Residues count along the entry.
UniProt Q15303, 26-1308 limits assumed: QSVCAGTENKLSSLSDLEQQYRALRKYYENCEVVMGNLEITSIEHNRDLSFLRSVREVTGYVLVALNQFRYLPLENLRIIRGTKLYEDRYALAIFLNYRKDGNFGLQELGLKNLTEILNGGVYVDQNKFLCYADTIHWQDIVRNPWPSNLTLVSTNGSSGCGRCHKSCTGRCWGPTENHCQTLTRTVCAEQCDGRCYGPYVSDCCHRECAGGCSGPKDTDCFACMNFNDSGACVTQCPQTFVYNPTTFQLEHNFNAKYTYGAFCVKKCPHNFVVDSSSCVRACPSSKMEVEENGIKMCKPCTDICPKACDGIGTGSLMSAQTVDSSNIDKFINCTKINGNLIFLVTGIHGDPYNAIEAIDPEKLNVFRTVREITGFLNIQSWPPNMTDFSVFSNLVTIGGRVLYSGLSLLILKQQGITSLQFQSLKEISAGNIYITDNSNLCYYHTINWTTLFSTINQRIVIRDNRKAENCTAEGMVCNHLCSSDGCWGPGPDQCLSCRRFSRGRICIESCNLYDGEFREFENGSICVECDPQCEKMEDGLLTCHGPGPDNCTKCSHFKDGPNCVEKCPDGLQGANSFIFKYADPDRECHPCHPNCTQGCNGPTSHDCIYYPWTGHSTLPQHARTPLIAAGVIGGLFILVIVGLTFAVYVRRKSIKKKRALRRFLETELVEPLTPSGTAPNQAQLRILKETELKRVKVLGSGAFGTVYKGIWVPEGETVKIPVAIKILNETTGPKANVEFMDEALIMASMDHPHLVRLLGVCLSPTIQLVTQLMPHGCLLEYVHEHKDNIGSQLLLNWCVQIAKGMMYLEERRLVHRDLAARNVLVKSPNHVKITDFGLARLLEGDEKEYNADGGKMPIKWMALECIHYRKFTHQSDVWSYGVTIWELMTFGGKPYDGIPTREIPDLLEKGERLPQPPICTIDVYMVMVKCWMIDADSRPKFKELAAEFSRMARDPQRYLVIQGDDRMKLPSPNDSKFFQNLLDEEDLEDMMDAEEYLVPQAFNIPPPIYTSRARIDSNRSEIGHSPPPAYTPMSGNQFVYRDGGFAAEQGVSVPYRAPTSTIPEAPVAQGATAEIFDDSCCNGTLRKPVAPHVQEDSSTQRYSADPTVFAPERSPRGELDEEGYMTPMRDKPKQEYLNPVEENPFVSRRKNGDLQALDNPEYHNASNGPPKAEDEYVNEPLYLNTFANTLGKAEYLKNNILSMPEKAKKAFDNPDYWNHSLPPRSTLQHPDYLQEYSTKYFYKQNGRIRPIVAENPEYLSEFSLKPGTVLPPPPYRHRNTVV

The target in this experiment is ErbB4 (Homo sapiens, UniProt Q15303). Kind of experiment: ELISA-based erbB kinase assay (ErbB4). Conditions: GST-erbB4 cytoplasmic fusion protein, 20 uM ATP, poly-Glu-Tyr substrate. In kind it is biochemical. An excerpt:
ErbB1, erbB2 and erbB4 cytoplasmic fusion proteins were made by cloning the erbB1 sequence (Met-668 to Ala1211), erbB2 (Ile-675 to Val-1256) and erbB4 sequence (Gly-259 to Gly-690) into the baculoviral vector pFastBac using Polymerase Chain Reaction (PCR). Proteins were expressed in Baculovirus-infected Sf9 insect cells as Glutathione S-Transferase (GST) fusion proteins. The proteins were purified by affinity chromatography using glutathione sepharose beads.
Inhibition of erbB tyrosine kinase activity was assessed using an ELISA-based receptor tyrosine kinase assay. Kinase reactions (50 mM HEPES, pH 7.4, 125 mM NaCl, 10 mM MgCl2, 100 μM sodium orthovanadate, 2 mM dithiothreitol, 20 uM ATP, test compound or vehicle control and 1-5 nM GST-erbB per 50 uL reaction) were run in 96-well plates coated with 0.25 mg/ml poly-Glu-Tyr (Sigma). The reactions were incubated for 6 minutes at room temperature while shaking. […] Phosphorylated tyrosine residues were detected by adding 0.2 μg/ml anti-phosphotyrosine antibody (Oncogene Ab-4; 50 μL/well) coupled to Horse Radish Peroxidase (HRP) for 25 minutes while shaking at room temperature. […] The signal was quantified by measuring absorbance at 450 nm. IC50 values were determined for test compounds using Microsoft Excel.

For orientation: IC50 means the concentration at which inhibition is half-maximal. Take `COc1cc2ncnc(Nc3ccc(F)c(Cl)c3)c2cc1NC(=O)/C=C/CN1CCCCC1` [Example No. 2, 4-Piperidin-1-yl-but-2-enoic acid [4-(3-chloro-4-fluoro-phenylamino)-7-methoxy-quinazolin-6-yl]-amide]: the half-maximal inhibitory concentration (IC50) is 83.7 nM.
